Values of other authors in patent US10363306B2, “Cytokines and neuroantigens for treatment of immune disorders” (East Carolina University, priority 2009, dated 2019).

System: multiple sclerosis
Conditions: multiple sclerosis patients, clinical benefit; cited from earlier work

B1: Interferon-beta: Interferon-beta used as mainstream therapy for multiple sclerosis (protein, UniProt P01574 22-187, looked up)
Interferon beta: MSYNLLGFLQRSSNFQCQKLLWQLNGRLEYCLKDRMNFDIPEEIKQLQQFQKEDAALTIYEMLQNIFAIFRQDSSSTGWNETIVENLLANVYHQINHLKTVLEEKLEKEDFTRGKLMSSLHLKRYYGRILHYLKAKEYSHCAWTIVRVEILRNFYFINRLTGYLRN
  reduction in the attack rate: ~30%
